In one assay the target is BACE-1 enzyme (Homo sapiens, UniProt P56817). Briefly: BACE Fluorescence Resonance Energy Transfer (FRET) Assay. The settings on record: read-out: IC50 (μM) FRET assay, pH 4-4.5, 30 min pre-incubation, about 1.5 hours reaction, asterisk = mean. Here is the method: BACE Fluorescence Resonance Energy Transfer (FRET) Assay
In the following assay, the proteolytic activity of BACE is measured by observing cleavage of a fluorescent group from a peptide substrate containing a rhodamine fluorescent donor and a quenching acceptor.
The inhibitory activity of compounds of Formula (I) may be compared to a statine derived control inhibitor STA200 (MP Biomedical Cat. #STA-200). The cleavage reaction occurs when a BACE-1 substrate (Invitrogen, Cat. #P2986) was added to a reaction mixture containing BACE-1 enzyme (R & D Systems, Cat. #931AS) and allowed to proceed for about 1.5 hours. Fluorescence, used as a marker of BACE activity, is monitored using 540 nm excitation and 585 nm emission wavelengths (Envision, Perkin Elmer).
A typical assay reaction contains BACE-1 enzyme-in assay buffer (50 mM sodium acetate, pH 4-4.5, 0.01% CHAPS (3-[(3-Cholamidopropyl)dimethylammonio]-1-propanesulfonate), 0.0125% TritonX-100, 0.006% EDTA) which is pre-incubated for 30 minutes with test compound in 7.5% DMSO. The reaction is initiated with the addition of BACE-1 substrate in assay buffer and allowed to proceed for about 1.5 hours at room temperature. Assays are conducted in black 384-well microtiter plates and scanned at room temperature using 540 nm excitation and 585 nm emission wavelengths.
In some instances, the percent inhibition at a given concentration is reported instead of the IC50.

Protein sequences, listed by entry. Tags and fused reporters are not part of them. Residues count along the entry.
UniProt P56817, 46-457 limits assumed: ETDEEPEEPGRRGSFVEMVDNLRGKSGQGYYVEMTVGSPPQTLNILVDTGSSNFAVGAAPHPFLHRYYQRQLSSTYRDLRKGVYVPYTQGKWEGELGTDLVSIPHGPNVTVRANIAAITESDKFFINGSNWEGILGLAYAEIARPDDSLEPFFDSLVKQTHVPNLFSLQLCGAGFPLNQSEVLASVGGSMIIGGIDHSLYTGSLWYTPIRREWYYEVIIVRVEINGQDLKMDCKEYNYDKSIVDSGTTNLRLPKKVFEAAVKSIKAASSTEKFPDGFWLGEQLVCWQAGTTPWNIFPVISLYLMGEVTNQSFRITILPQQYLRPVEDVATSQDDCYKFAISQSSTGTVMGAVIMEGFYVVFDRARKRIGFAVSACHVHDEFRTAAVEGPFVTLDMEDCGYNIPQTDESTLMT

For assay [1], the system named is Aβ1-40 secreted from HEK293 cells stably expressing wildtype human APP695 protein (HEK-APPwt cells); proteolytic activity of BACE. Briefly: Aβ Cell Based Assay (Aβ1-40 secretion, ELISA). The settings on record: read-out: EC50 (μM) Cell-Based Assay, 6 hours incubation, reduction of Aβ1-40 secretion, asterisk = mean. The procedure: Aβ Cell Based Assay Procedure
In the following assay, the proteolytic activity of BACE in cells exposed to varying concentrations of a compound of interest is measured by observing the amount of Aβ1-40 secreted from HEK293 cells (Human Embryonic Kidney epithelial cell line) stably expressing wildtype human APP695 protein (HEK-APPwt cells).
HEK-APPwt cells were grown in high glucose DMEM (Dulbecco's Modified Eagles Medium SIGMA Cat. #D5796) supplemented with 25 mM HEPES (4-(2-hydroxyethyl)-1-piperazineethanesulfonic acid) (pH 7.4) (Invitrogen Cat. #15630-114), 0.1 mM NEAA (Non-essential Amino Acids) (BioWhittaker Cat. #13-114E), 10% fetal bovine serum (SIGMA Cat. #F4135) and 250 μg/mL hygromycin (Invitrogen Cat. #10687-010) in T-225 flasks at 37° C. with 5% CO2 and humidity control.
Test compounds were initially prepared in DMSO and diluted with DMEM media containing 2% FBS (Fetal bovine serum). Ten standard compound solutions were prepared having a range of concentrations. The standard compound solutions were used to determine the EC50 of the test compound. The range of concentrations chosen may depend on the compound's predicted potency.
To prepare cells for the assay, a flask containing HEK-APPwt cells were trypsinized briefly (1 mL trypsin), and once the cells detached, 4 mL of 10% FBS-DMEM was added to the flask. The detached cells were centrifuged at 900 rpm for 5 min to form a pellet.
The HEK-APPwt cell pellet was re-suspended with 10 mL DMEM media containing 2% FBS. 80 μL of the cell suspension was added to each well of a 96-well cell culture plate to give 100×10^4 cells/ml. 10 μL of a standard compound solution was added to each well of the 96-well cell culture plate followed by 10 μL of Alamar blue solution. The cells were incubated at 37° C. in a 5% CO2 incubator for 6 hours.
At the end of the incubation, the plates were removed from incubator, and the supernatant was collected. Aβ1-40 concentration in the medium was measured by using a commercial Aβ1-X ELISA kit (IBL, Japan Cat. #27729). Briefly, the ELISA plates were coated with an anti-human Aβ (N)(82E1) mouse IgG monoclonal antibody. A horseradish peroxidase conjugated anti-human Aβ11-28 mouse IgG monoclonal antibody was used for detection. The cell culture supernatant was diluted with EIA buffer+protease inhibitors (kit buffer containing protease inhibitors (1 mL PI/30 mL buffer)). A 100 μL aliquot of the diluted supernatant was added to each well of the ELISA plate and incubated for 6 hrs at 4° C. The ELISA plate was washed 8 times with phosphate buffered saline (PBS) containing 0.05% TWEEN 20.
A 100 μL of detection antibody was then added and incubated for 1 hour at 4° C. The plate was washed 8 times with PBS buffer containing 0.05% Tween 20 followed by addition of 100 μL of the chromogen tetramethylbenzidine (TMB). The plate was incubated in the dark at room temperature for about 30 min and a stop solution (1N H2SO4) was added.
The intensity of the color developed was measured at 450 nm. The optical density at 450 nm (OD450) is proportional to the concentration of human Aβ1-40 secreted by the cell. As a reference, N—[N-(3,5-difluorophenacetyl-L-alanyl)]—S-phenylglycine t-butyl ester (DAPT, a γ-secretase inhibitor) was used to indicate 100% inhibition of […]. Thus, the assay measures the ability of a compound of interest to reduce Aβ1-40 secretion. Compound potency is reported in Table 3 as the EC50 by calculating the percent inhibition at all concentration levels and the data were fit with non-linear curve fitting algorithm using GraphPad Prism.
(ELISA stands for enzyme-linked immunosorbent assay.)

The term IC50 denotes the concentration at which inhibition is half-maximal. `CN(C)c1ccc2nc(C(=O)Nc3nc4cc(-c5cccc(OC(F)(F)F)c5)ccc4[nH]3)cn2n1`: the IC50 at BACE-1 enzyme is 0.297 µM. As for `CC(C)(CO)COc1ccc2nc(C(=O)Nc3nc4cc(-c5cccc(C(F)(F)F)c5)ccc4[nH]3)cn2n1`, at BACE-1 enzyme, the IC50 is 0.188 µM. Further, the EC50 in assay [1] was 0.8 µM. For `COc1ccc2nc(C(=O)Nc3nc4cc(-c5cccc(C(F)(F)F)c5)ccc4[nH]3)cn2n1`, at BACE-1 enzyme, the IC50 came out at 0.255 µM. The same measure, in the same setting: the value for `CN1CCN(c2ccc3nc(C(=O)Nc4nc5cc(-c6cccc(C(F)(F)F)c6)ccc5[nH]4)cn3n2)CC1` was 0.261 µM. `CCCC[C@@H](O)COc1ccc2nc(C(=O)Nc3nc4cc(-c5cccc(C(F)(F)F)c5)ccc4[nH]3)cn2n1`: the IC50 on BACE-1 enzyme was determined as 0.348 µM. Moreover, the EC50 in assay [1] was 0.23 µM. Regarding `C[C@@H](F)COc1ccc2nc(C(=O)Nc3nc4cc(-c5cccc(C(F)(F)F)c5)ccc4[nH]3)cn2n1`, on BACE-1 enzyme, the IC50 stood at 0.174 µM. Take `O=C(Nc1nc2cc(-c3cccc(OC(F)(F)F)c3)ccc2[nH]1)c1cn2nc(SCCO)ccc2n1`: the IC50 on BACE-1 enzyme was determined as 0.171 µM. Further, the EC50 in assay [1] was 0.97 µM. Take `O=C(Nc1nc2cc(-c3cccc(OC(F)(F)F)c3)ccc2[nH]1)c1cn2nc(OC(CO)CO)ccc2n1`: on BACE-1 enzyme, the IC50 stood at 0.281 µM. Also, in assay [1], the EC50 was found to be 3.27 µM.

Consider `C[C@H](CO)Oc1ccc2nc(C(=O)Nc3nc4cc(-c5cccc(OC(F)(F)F)c5)ccc4[nH]3)cn2n1`, for which, at BACE-1 enzyme, the IC50 is 0.313 µM. For the same compound, the EC50 in assay [1] worked out at 1.95 µM. In the same order, the values of `COC[C@@H](CO)Oc1ccc2nc(C(=O)Nc3nc4cc(-c5cccc(C(F)(F)F)c5)ccc4[nH]3)cn2n1` are 0.229 µM and 1.16 µM.

Regarding `O=C(Nc1nc2cc(-c3cccc(OC(F)(F)F)c3)ccc2[nH]1)c1cn2nc(OCC3CCOC3)ccc2n1` (stereo not drawn), the IC50 on BACE-1 enzyme was 0.204 µM. Moreover, in assay [1], the EC50 came out at 0.44 µM. For the compound `O=C(Nc1nc2cc(-c3ccc(Cl)c(C(F)(F)F)c3)ccc2[nH]1)c1cn2nc(Cl)ccc2n1`, the IC50 on BACE-1 enzyme amounted to 0.368 µM. On the same count and under the same terms, the value for `O=C(Nc1nc2cc(OCc3ccccc3)ccc2[nH]1)c1cn2nc(Cl)ccc2n1` was 0.099 µM; that for `NCCOc1ccc2nc(C(=O)Nc3nc4cc(-c5cccc(OC(F)(F)F)c5)ccc4[nH]3)cn2n1` was 0.104 µM. In the case of `C[C@H](O)C[C@H](C)Oc1ccc2nc(C(=O)Nc3nc4cc(-c5cccc(C(F)(F)F)c5)ccc4[nH]3)cn2n1`, the IC50 on BACE-1 enzyme was 0.318 µM. In assay [1], the EC50 worked out at 1.94 µM. As to `N[C@@H]1CCCN(c2ccc3nc(C(=O)Nc4nc5cc(-c6cccc(C(F)(F)F)c6)ccc5[nH]4)cn3n2)C1`, at BACE-1 enzyme, the IC50 worked out at 0.32 µM. On the same count and under the same terms, the value for `O=C(Nc1nc2cc(OCc3ccc(C(F)(F)F)cc3)ccc2[nH]1)c1cn2nc(Cl)ccc2n1` was 0.132 µM; that for `O=C(Nc1nc2cc(OCc3ccc(Cl)cc3)ccc2[nH]1)c1cn2nc(Cl)ccc2n1` was 0.286 µM. With `O=C(Nc1nc2cc(-c3cccc(C(F)(F)F)c3)ccc2[nH]1)c1cn2nc(OCC(F)(F)CO)ccc2n1`, at BACE-1 enzyme, the IC50 was determined as 0.224 µM. Also, in assay [1], the EC50 turned out to be 0.26 µM.

Regarding `CNc1ccc2nc(C(=O)Nc3nc4cc(-c5cccc(OC(F)(F)F)c5)ccc4[nH]3)cn2n1`, the IC50 at BACE-1 enzyme is 0.3 µM. On the same count and under the same terms, the value for `CN(C)CCOc1ccc2nc(C(=O)Nc3nc4cc(-c5cccc(C(F)(F)F)c5)ccc4[nH]3)cn2n1` was 0.376 µM.

The record behind these values is patent publication US8450354B2, “Substituted imidazo[1,2-b]pyridazine derivatives, pharmaceutical compositions, and methods of use as β-secretase inhibitors” (High Point Pharmaceuticals, LLC, priority 2010, dated 2013).
